B1: mDia1 G-DID-DD-CC (residues 67–570) (domain or fragment, mouse, UniProt O08808 67-570, looked up)
chain: GDDPTAQSLQDISDEQVLVLFEQMLVDMNLNEEKQQPLREKDIVIKREMVSQYLHTSKAGMNQKESSRSAMMYIQELRSGLRDMHLLSCLESLRVSLNNNPVSWVQTFGAEGLASLLDILKRLHDEKEETSGNYDSRNQHEIIRCLKAFMNNKFGIKTMLETEEGILLLVRAMDPAVPNMMIDAAKLLSALCILPQPEDMNERVLEAMTERAEMDEVERFQPLLDGLKSGTSIALKVGCLQLINALITPAEELDFRVHIRSELMRLGLHQVLQELREIENEDMKVQLCVFDEQGDEDFFDLKGRLDDIRMEMDDFGEVFQIILNTVKDSKAEPHFLSILQHLLLVRNDYEARPQYYKLIEECVSQIVLHKNGTDPDFKCRHLQIDIERLVDQMIDKTKVEKSEAKATELEKKLDSELTARHELQVEMKKMENDFEQKLQDLQGEKDALDSEKQQITAQKQDLEAEVSKLTGEVAKLSKELEDAKNEMASLSAVVVAPSVSSSAA
notes: mDia1, mouse, residues 67-570 (G-DID-DD-CC); also called N-terminal regulatory fragment; G-DID-DD-CC dimer; source: E. coli BL21(DE3), purified (DEAE sepharose, MonoQ, MonoS, Superdex 200)
B2: mDia1 DID-DD (131–457) (domain or fragment, mouse, UniProt O08808 131-457, looked up)
chain: ESSRSAMMYIQELRSGLRDMHLLSCLESLRVSLNNNPVSWVQTFGAEGLASLLDILKRLHDEKEETSGNYDSRNQHEIIRCLKAFMNNKFGIKTMLETEEGILLLVRAMDPAVPNMMIDAAKLLSALCILPQPEDMNERVLEAMTERAEMDEVERFQPLLDGLKSGTSIALKVGCLQLINALITPAEELDFRVHIRSELMRLGLHQVLQELREIENEDMKVQLCVFDEQGDEDFFDLKGRLDDIRMEMDDFGEVFQIILNTVKDSKAEPHFLSILQHLLLVRNDYEARPQYYKLIEECVSQIVLHKNGTDPDFKCRHLQIDIERLVD
notes: mDia1, mouse, residues 131-457 (DID-DD, lacks the CC region); A selenomethionyl-substituted form was also crystallised for phasing (SeMet #1); also called (DID-DD)2; source: E. coli BL21(DE3), purified (DEAE sepharose, MonoQ, MonoS, Superdex 200)

Molecular target: the molecule itself
Experiment: SEC-MALS; Superdex 200 with on-line 18-angle light scattering; 25 µM protein injected; 10 mM HEPES pH 7.0, 150 mM NaCl, 1 mM DTT

Protein	stoichiometry N
B1	2
B2	2

Source: article PMC2948019 (PLoS ONE, 2010)
